Measured values published in US20060247320A1, “Compounds for inhibiting KSP kinesin activity” (priority 2005, published 2006).

Chains of the proteins cited; added tags and fusions are not shown. Residues count along the entry.
UniProt P52732, 18-359 limits assumed: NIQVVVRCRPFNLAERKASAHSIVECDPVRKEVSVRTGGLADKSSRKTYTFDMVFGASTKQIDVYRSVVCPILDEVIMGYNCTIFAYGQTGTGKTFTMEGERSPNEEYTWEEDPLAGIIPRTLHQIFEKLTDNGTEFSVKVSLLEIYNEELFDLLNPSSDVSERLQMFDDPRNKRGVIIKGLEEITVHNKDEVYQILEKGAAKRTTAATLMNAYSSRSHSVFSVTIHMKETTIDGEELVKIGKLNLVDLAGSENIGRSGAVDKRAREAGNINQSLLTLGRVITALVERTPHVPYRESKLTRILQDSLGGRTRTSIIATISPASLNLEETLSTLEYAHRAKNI

Biological target: KSP motor domain (Homo sapiens, UniProt P52732)
Assay: KSP endpoint assay (microtubule-stimulated ATPase, Biomol green, OD620)
Type: biochemical
Details: KSP inhibitory activity, end-point assay; class symbols (Table 1)

Row | SMILES | IC50
1 | C[C@@H](CO)NC(=O)c1cc2cc3c(nc2s1)CCC(C(C)(C)C)C3 (stereo partly drawn) | 1 to 10 µM
2 | CNC(=O)c1cc2cc3c(nc2s1)CCC(C(C)(C)C)C3 (stereo not drawn) | < 0.1 µM
3 | CC(C)(C)C1CCc2nc3sc(C(=O)N4C[C@@H](O)C[C@@H]4C(=O)O)cc3cc2C1 (stereo partly drawn) | > 10 µM
